Target: human α-thrombin (Homo sapiens (Human), UniProt P00734)
Assay: In vitro assay for determining proteinase inhibition (thrombin Ki)
Assay type: biochemical
Conditions: 25° C., 0.05 M TRIS buffer pH 7.4, 0.15 M NaCl, 0.1% PEG; competitive inhibition assumed
Method: NMR determinations were made using 400 MHz field strength. Ki data was obtained according to the procedure described in Lewis, et al. Thromb. […] Reactions sensitive to moisture or air were performed under nitrogen or argon using anhydrous solvents and reagents. […] Typically, the analytical LC-MS system used consisted of a Waters ZQ platform with electrospray ionization in positive ion detection mode with an Agilent 1100 series HPLC with autosampler. The column was usually a Water Xterra MS C18, 3.0×50 mm, 5 μm. The flow rate was 1 mL/min, and the injection volume was 10 μL. UV detection was in the range 210-400 nm. […] Preparative HPLC purifications were usually performed using a mass spectrometry directed system. […] The mobile phases consisted of mixtures of acetonitrile (10-100%) in water containing 0.1% TFA. Flow rates were maintained at 50 mL/min, the injection volume was 1800 μL, and the UV detection range was 210-400 nm. Mobile phase gradients were optimized for the individual compounds. Reactions performed using microwave irradiation were normally carried out using an Emrys Optimizer manufactured by Personal Chemistry, or an Initiator manufactured by Biotage. Concentration of solutions was carried out on a rotary evaporator under reduced pressure. […]
Concentrations of stock solutions of Z-GPR-afc were determined from measurements of absorbance at 380 nm of the 7-amino-4-trifluoromethyl coumarin produced upon complete hydrolysis of an aliquot of the stock solution by thrombin.
Activity assays were performed by diluting a stock solution of substrate at least tenfold to a final concentration ≦0.1 Km into a solution containing enzyme or enzyme equilibrated with inhibitor. Times required to achieve equilibration between enzyme and inhibitor were determined in control experiments. Initial velocities of product formation in the absence (Vo) or presence of inhibitor (Vi) were measured. […]

| Ki | SMILES |
| --- | --- |
| 720 nM | CC1(C)CC1(O)C(=O)N1CCC[C@H]1C(=O)NCc1cc(Cl)ccc1CN (single isomer, unassigned) [Compound 37-11a] |
| 100 nM | NCc1ccc(Cl)cc1CNC(=O)[C@@H]1CCCN1C(=O)C1(N)CCc2cccnc21 (single isomer, unassigned) [Compound 29-9b, tris(2,2,2-trifluoroacetate)] |
| 65 nM | CC1(C)C[C@]1(O)C(=O)N1CCC[C@H]1C(=O)NCc1cc(Cl)ccc1CN (single isomer, unassigned) [Compound 37-11b] |

Source: patent US9469608B2, “Thrombin inhibitors” (Merck Sharp & Dohme Corp., priority 2012, dated 2016)
